According to PubChem BioAssay AID1446 (The Scripps Research Institute Molecular Screening Center, 2008):
The list shows a part of the results, in another mix than the full data. Some results for these compounds are left out of this collection, so the calls shown say nothing about other tests. Activity calls are given as the source filed them.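 How the source made its calls: active means inhibition above the campaign mean plus 3 SD over all tested compounds (cut at about 24% in these data); inactive means the rest.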

experiment: viability loss in Ba/F3 EpoR-JAK2V617F cells – cell-based, luminescence, JAK2V617F inhibitor project, primary screen (AID 1446); conditions: ATP luminescence, at 5.6 µM, hits give high values;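 further: cytokine-independent growth of Ba/F3 cells driven by EpoR plus mutant JAK2; 0% = DMSO-treated cells and 100% = JAK inhibitor I control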

SMILES | inhibition
O=C(OC1CN2CCC1CC2)C(CO)(c1ccccc1)c1ccccc1 (stereo unspecified) | inactive: 2.36%
COc1ccc(Br)c(C(=O)NCC2(N3CCCCC3)CCCCC2)c1 | inactive: -3.2%
CN(C)c1cccc(C(=O)NCC2(N(C)C)CCCCC2)c1 | inactive: -1.52%
COc1cccc(C(=O)NCC2(N3CCCCC3)CCCCC2)c1 | inactive: -0.65%
Cc1ccccc1C(=O)NCC1(N2CCCCC2)CCCCC1 | inactive: 4.64%
CN(C)C1CCCC1OC(=O)C(O)(c1ccccc1)c1ccccc1 (stereo unspecified) | inactive: -3.18%
C=CCN1CCN(CCOC(=O)C(O)(c2ccccc2)c2ccccc2)CC1 | inactive: -2.28%
CCN1CCCC(OC(=O)C2(O)c3ccccc3C=Cc3ccccc32)C1 (stereo unspecified) | inactive: -2.05%
O=C(NCC1(N2CCCCC2)CCCCC1)c1cc([N+](=O)[O-])ccc1Cl | inactive: 1.1%
CCN(CC)CC(C)C(C)OC(=O)C(O)(c1ccccc1)c1ccccc1 (stereo unspecified) | inactive: -4.93%
CC(C)N1C(=O)CC2(CCN(CCOC(=O)C(O)(c3ccccc3)c3ccccc3)CC2)C1=O | inactive: -2.46%
